Among the data in patent US20080269114A1, “Y4 Selective Receptor Agonists For Thereapeutic Interventions” (priority 2004, published 2008) are protein stability, IC50 and EC50 values, retold here.

Chains of the proteins cited; added tags and fusions are not shown. Lines headed by an entry give the natural chain unless they say otherwise; changes in a name come on top.
UniProt P50391: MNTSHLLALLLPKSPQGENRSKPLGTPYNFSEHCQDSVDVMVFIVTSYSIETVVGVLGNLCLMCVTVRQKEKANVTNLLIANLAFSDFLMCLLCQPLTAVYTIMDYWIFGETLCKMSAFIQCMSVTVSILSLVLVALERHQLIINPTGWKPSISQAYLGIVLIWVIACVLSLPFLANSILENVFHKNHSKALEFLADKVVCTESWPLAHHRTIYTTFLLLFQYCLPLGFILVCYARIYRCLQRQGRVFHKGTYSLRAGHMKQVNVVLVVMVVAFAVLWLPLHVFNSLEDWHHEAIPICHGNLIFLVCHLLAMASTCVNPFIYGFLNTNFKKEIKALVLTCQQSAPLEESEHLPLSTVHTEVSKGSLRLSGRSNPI

By IC50 is commonly meant the concentration at which inhibition is half-maximal. What is called EC50 is the concentration giving half of the maximal effect.

Each structure is given as a SMILES string.

A short description of data set [1]: In vitro assays to determine protein stability. The settings on record: compared to PP (PP1-36); statement in words. The class given is in vitro ADME.
Data set [2] addresses T1, human Y4 receptor (Homo sapiens, UniProt P50391).
T1 construct: expressed in transfected cells; host or cells: COS-7
Put plainly: Human Y4 receptor affinity assay (125I-PP competition binding, transfected COS-7 cells). The settings on record: refers to Table 1.

Data set [3] addresses T1, human Y4 receptor. Put plainly: Human Y4 receptor potency assay (inositol phosphate turnover, COS-7 cells). The class given is cell-based. The settings on record: refers to Table 2; inositol phosphate turnover assay in transfected COS-7 cells; read-out: agonist potency on the Y4 receptor (EC50).

For the compound `CC[C@H](C)[C@H](NC(=O)[C@H](Cc1ccc(O)cc1)NC(=O)[C@H](CCCNC(=N)N)NC(=O)[C@H](CCCNC(=N)N)NC(=O)[C@H](CC(C)C)NC(=O)[C@H](CC(=O)O)NC(=O)[C@H](C)NC(=O)[C@H](C)NC(=O)[C@H](Cc1ccc(O)cc1)NC(=O)[C@H](CCC(N)=O)NC(=O)[C@H](C)NC(=O)[C@H](CCSC)NC(=O)[C@H](CCC(N)=O)NC(=O)[C@H](CCC(=O)O)NC(=O)[C@@H]1CCCN1C(=O)[C@@H](NC(=O)[C@H](C)NC(=O)[C@H](CC(N)=O)NC(=O)[C@H](CC(=O)O)NC(=O)CNC(=O)[C@@H]1CCCN1C(=O)[C@H](Cc1ccc(O)cc1)NC(=O)[C@@H](NC(=O)[C@@H]1CCCN1C(=O)[C@H](CCC(=O)O)NC(=O)[C@H](CC(C)C)NC(=O)[C@@H]1CCCN1)C(C)C)[C@@H](C)O)C(=O)N[C@@H](CC(N)=O)C(=O)N[C@@H](CCSC)C(=O)N[C@@H](CC(C)C)C(=O)N[C@H](C(=O)N[C@@H](CCCNC(=N)N)C(=O)N1CCC[C@H]1C(=O)N[C@@H](CCCNC(=N)N)C(=O)N[C@@H](Cc1ccc(O)cc1)C(N)=O)[C@@H](C)O` [PP2-36], the protein stability result in data set [1] is listed as “more stable”.
Compound `CC[C@H](C)[C@H](NC(=O)[C@H]1CSSC[C@H](NC(=O)[C@H](C)N)C(=O)N[C@@H](CC(C)C)C(=O)N[C@@H](CCC(=O)O)C(=O)NCCCCCCCC(=O)N[C@@H](CCCNC(=N)N)C(=O)N[C@@H](CCCNC(=N)N)C(=O)N1)C(=O)N[C@@H](CC(N)=O)C(=O)N[C@@H](CCSC)C(=O)N[C@@H](CC(C)C)C(=O)N[C@H](C(=O)N[C@@H](CCCNC(=N)N)C(=O)N1CCC[C@H]1C(=O)N[C@@H](CCCNC(=N)N)C(=O)N[C@@H](Cc1ccc(O)cc1)C(N)=O)[C@@H](C)O` [[Cys2,Aoc5-24,D-Cys27]PP] showed a half-inhibitory concentration (IC50) in data set [2] of 286 nM.
For `CC[C@H](C)[C@H](NC(=O)[C@H]1CSSC[C@H](NC(=O)[C@H](C)N)C(=O)N[C@@H](CC(C)C)C(=O)N[C@@H](CCC(=O)O)C(=O)N2CCC[C@H]2C(=O)N[C@@H](C(C)C)C(=O)N[C@@H](Cc2ccc(O)cc2)C(=O)N2CCC[C@H]2C(=O)NCC(=O)N[C@@H](CC(=O)O)C(=O)N[C@@H](CC(N)=O)C(=O)N[C@@H](C)C(=O)N[C@@H]([C@@H](C)O)C(=O)N2CCC[C@H]2C(=O)N[C@@H](CCC(=O)O)C(=O)N[C@@H](CCC(N)=O)C(=O)N[C@@H](CCSC)C(=O)N[C@@H](C)C(=O)N[C@@H](CCC(N)=O)C(=O)N[C@@H](Cc2ccc(O)cc2)C(=O)N[C@@H](C)C(=O)N[C@@H](C)C(=O)N[C@@H](CC(=O)O)C(=O)N[C@@H](CC(C)C)C(=O)N[C@@H](CCCNC(=N)N)C(=O)N[C@@H](CCCNC(=N)N)C(=O)N1)C(=O)N[C@@H](CC(N)=O)C(=O)N[C@@H](CCSC)C(=O)N[C@@H](CC(C)C)C(=O)N[C@H](C(=O)N[C@@H](CCCNC(=N)N)C(=O)N1CCC[C@H]1C(=O)N[C@@H](CCCNC(=N)N)C(=O)N[C@@H](Cc1ccc(O)cc1)C(N)=O)[C@@H](C)O` [[Cys2,D-Cys27]PP], the protein stability entry in data set [1] is given as “more stable”. Moreover, in data set [3], the EC50 amounted to 4.6 nM. In data set [2], the IC50 was 8.2 nM.
